Measured values reported in patent publication US6713294B1, “DNA glycosylases and their use” (priority 1996, dated 2004).

Tested on: ^3H-uracil released in uracil-DNA glycosylase assays
Assay: Uracil-DNA glycosylase activity after coupled transcription/translation in rabbit reticulocyte lysates
Type: biochemical
Procedure: In vitro transcription/translation was performed with the TNT® transcription/translation system with […] as recommended by the manufacturer, using 200 ng of the expression constructs per 10 μl reaction volume. The mouse UNG1-pBluescript® construct was transcribed from the T3 promoter in the pBluescript® vector. The insert of mouse UNG2-pBluescript® was amplified by the polymerase chain reaction using Dynazyme® PCR kit, ligated into the pGEM-T vector and transcribed from the T7 promoter. The human UNG2-pBluescript was transcribed from the T3 promoter after SacII/NheI excision of a 79 bp fragment from the polylinker and the 5′-end of cDNA for UNG2. Human UNG1 CDNA was transcribed from the T7 promoter as previously described (Slupphaug et al., 1995, Biochemistry, 34, p128-138). The samples were run on a 12% denaturing sodium dodecyl sulfate polyacrylamide gel (SDS-PAGE). […] Uracil-DNA glycosylase activity was measured in parallel samples of the in vitro transcription/translation assay mixture containing unlabelled amino acids (Slupphaug et al., 1995, supra). […]
For calculations of the relative specific activities, the radioactivity released in uracil-DNA glycosylase assays was compared to band intensities on an SDS-PAGE gel from transcription/translation reactions using [^35S] methionine (Table 6).

dpm (^3H-uracil released) (after subtraction of background of 123 dpm): 6360 dpm
Substance: human UNG2: new human uracil-DNA glycosylase from alternative splicing, 313 amino acids, nuclear (SEQ ID No 2)
Activity (dpm/area), relative specific activity (translation in rabbit reticulocyte lysates): 23731 dpm/area
